Screening results: PubChem BioAssay, National Center for Advancing Translational Sciences (NCATS)
Rows were chosen to be rich in hits. Some 2.4% of all compounds tested hit in one or more screens of this group.
PGK inhibitor: blocks T. brucei phosphoglycerate kinase; P07378; PGK/GAPDH coupled, Kinase-Glo luminescence, 60 min; Potency, µM (highest dose often 57.5 µM), inactives show at the highest dose activity change, negative = inhibition, hits mostly inhibitors; 380,000 compounds, 0.043% hits; AID 602233; note: % is set by controls: 0 for no effect and ±100 for the full control effect; nearly all actives have a fitted effect of over 60% in size
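Luminescent ATP detection (Kinase-Glo Plus) follows a 60-minute room-temperature incubation, with wells lacking PGK as controls. Buffer: 100 mM TEA (pH 7.6), 5 mM MgCl2, 0.01% Tween-20. Coupling enzyme GAPDH (100 nM final) supplies unstable 1,3-BPG in-well.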
ELG1 repair inh: ELG1-dependent DNA repair inhibition; HEK293T ELG1-luciferase reporter, luminescence, 16 h; DNA damage induced by 5-fluorouridine; Potency, µM (doses to about 46.1 µM), for the others: top-dose activity change, negative = inhibition, most hits filed as inhibitors; 330,000 compounds, 2.3% hits; note: % is set by controls: 0 for no effect and ±100 for the full control effect; nearly all actives have a fitted effect of over 55% in size
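Cells (2,000 per well) received 5-fluorouridine plus test compound or DMSO and were incubated 16 hr at 37 °C, 5% CO2. Luciferase activity was read by luminescence 30 min after ONE-Glo addition; signal suppression marked inhibition of damage-induced ELG1 function.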
Tb PFK inh: inhibitors of T. brucei phosphofructokinase. O15648. T. brucei PFK, ADP-Glo luminescence. 330,000 compounds, 0.17% hits. Potency, µM (doses to about 57.5 µM), for inactives: top-dose activity, negative = inhibition, usual class: inhibitors. AID 485367;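 note: 0% = uninhibited 1x PFK enzyme wells and -100% = no-enzyme wells; nearly all actives have a fitted effect of over 60% in size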
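In TEA buffer at pH 8.0 with 5 mM MgCl2, enzyme (1.25 nM) converted F6P (0.5 mM) and ATP (0.1 mM) for 45 min at room temperature. ADP product was read by luciferase luminescence.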
PKM2 activator: increases activity of human pyruvate kinase M2 | purified PKM2, Kinase-Glo ATP luminescence, activation; response scale: 0% is enzyme alone, no compound | Potency, µM (highest dose often 57.5 µM), without a hit: at the top dose activation, most hits filed as activators | 260,000 compounds, 0.34% hits | AID 1631; note: % is set by controls: 0 for no effect and ±100 for the full control effect; nearly all actives have a fitted effect of over 55% in size
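Purified hPK-M2 (>95% pure) converted ADP (0.1 mM final) to ATP with 0.5 mM PEP in 50 mM imidazole pH7.2, KCl, MgCl2, Tween 20, BSA; 1 h at room temperature. ATP detected by Kinase-Glo luminescence.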
Rango dissoc inh: inhibition of RanGTP-driven Rango-importin beta dissociation; O95149+P62826; Potency, µM (highest dose often 46.1 µM), for inactives: top-dose activity change, negative = inhibition; Biochemical FRET Rango-importin beta, RanGTP-induced dissociation; 340,000 compounds, 0.071% hits; calls by dose curve; note: % of control where 0% means no effect; nearly all actives have a fitted effect of over 45% in size
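Rango FRET biosensor (snurportin-1 IBB flanked by N-terminal EYFP and C-terminal CFP10) at 0.1 uM, with 0.25 uM importin beta in PBS, 1mM DTT, 0.02% Tween-20, 0.1% BSA. 0.6 uM Ran, 2mM GTP and 0.2 uM RCC1 were then added for 45 min at room temperature. Inhibition read as loss of FRET rise.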
Rango-impB inh: inhibitors of Rango-importin beta complex formation | Q14974 | Potency, µM (series often up to 92.2 µM), for the others: top-dose inhibition of complex formation | AID 540263 | 340,000 compounds, 0.031% hits | Rango CFP/YFP FRET sensor + importin beta, 45 min; calls by dose curve;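 note: 0% = DMSO wells and 100% = buffer wells lacking importin beta; nearly all actives have a fitted effect of over 15% in size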
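FRET biosensor (snurportin 1 IBB flanked by EYFP and cerulean), 50 nM, with compound 5 min, then 0.125 microM importin beta in PBS, 1 mM DTT, 0.02% Tween-20, 0.1% BSA. CFP/YFP ratio read after 45 min at room temperature; pre-read flags interference.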
* marks the source's active call; other numbers are inactive results; i = inactive; ? = inconclusive; / = no result. Unless noted, calls come from the whole dose curve; as a rule, active = well fitted curve in the direction sought with a large enough effect; inconclusive = small, poorly fitted or top-dose-only effect, or another doubt; inactive = no such curve, though single readings can be large; an effect the other way counts as inactive or inconclusive. Potency is the fitted concentration of half-maximal effect.

SMILES	PGK inhibitor	ELG1 repair inh	Tb PFK inh	PKM2 activator	Rango dissoc inh	Rango-impB inh
CC(C)[C@@H]1CC[C@@H](C)C[C@H]1OC(=O)C[n+]1cc(-c2ccc(Cl)cc2)n2c1CCCCC2	-4.4%	20.6µM*	-1.9%	-1.8%	2.4%	0.2%
COc1ccc(-c2c[n+](CC(=O)OC3CC(C)CCC3C(C)C)c3n2CCC3)cc1 (stereo not given)	-6.6%	?	2.2%	7.4%	-15.4%	1.5%
Cc1cc(-c2ccc(C(C)C)c(S(=O)(=O)N3CCN(c4ccccn4)CC3)c2)on1	-5.7%	16.4µM*	0.9%	/	-6.5%	3.8%
CCc1ccc(-c2cc(C)no2)cc1S(=O)(=O)N1CCN(c2ccccn2)CC1	-7.6%	-0.9%	-0.2%	/	15.7%	1.1%
O=C(c1cccs1)N1C[C@H](O)[C@@H](n2cc(C3CC3)nn2)C[C@@H]1c1ccccc1	3.3%	/	/	/	/	/
Cc1nn(-c2ccccc2)c(Cl)c1C(=O)NCCCCNC(=O)c1c(C)nn(-c2ccccc2)c1Cl	0.8%	16.4µM*	-4.4%	4.2%	-3.0%	2.9%
COc1ccc(CN(C)C(=O)COC(=O)c2c(C)nn(-c3ccc(F)cc3)c2Cl)cc1	-3.8%	13µM*	0.3%	/	-3.9%	2.4%
Cc1nn(-c2ccccc2)c(C)c1C(=O)OCC(=O)NC12CC3CC(CC(C3)C1)C2	1.3%	20.6µM*	3.2%	-1.6%	3.1%	-1.9%
COc1ccccc1CNC(=O)COC(=O)c1c(C)nn(-c2ccccc2)c1Cl	1.5%	?	3.4%	-1.2%	-4.9%	0.0%
CC(=O)Nc1ccc(NC(=O)COC(=O)c2c(C)nn(-c3ccccc3)c2C)cc1	-1.5%	-25.3%	-8.3%	3.8%	14.9%	2.7%
COc1cccc(CNC(=O)COC(=O)c2c(C)nn(-c3ccccc3)c2Cl)c1	-4.8%	23.1µM*	-3.6%	/	-4.2%	-0.9%
Cn1c(=O)c2c(O)c(C=Nc3ccc(F)cc3)c(=O)n(C)c2n(C)c1=O	-9.1%	1.4%	-3.1%	0.0%	-1.7%	-1.4%
O=C(O)CCc1ccc(-c2ccccc2)n1CC(=O)Nc1ccccc1C(F)(F)F	-7.1%	/	/	/	/	/
CCOc1ccc(S(=O)(=O)N2CCC(C(=O)NCc3cccnc3)CC2)cc1C	-6.3%	-5.4%	-2.0%	12.1%	1.0%	-0.6%
COc1cccc(NC(=O)COC(=O)CC(NC(N)=O)c2ccc(Cl)cc2)c1 (stereo not given)	-0.7%	3.9%	1.9%	-0.1%	-20.7%	4.2%
Cc1ccc(N2C(=O)SC(N(CC(=O)O)c3cccc(C)c3)C2=O)cc1 (stereo not given)	-7.1%	?	2.1%	-0.8%	?	?
CC(=O)N(c1cccc(C)c1)C1SC(=O)N(c2ccccc2)C1=O (stereo not given)	2.5%	2.2%	-13.5%	0.398µM*	9.7%	0.2%
CCCSC1=NC2(CCN(C(=O)NC3CCCCC3)CC2)N=C1c1ccc(Cl)cc1	-6.4%	/	/	/	/	/
CCC[C@H](CN[C@@H](CNC)[C@H](C)CC)NCCc1cc(C(F)(F)F)cc(C(F)(F)F)c1	-7.3%	20.6µM*	0.7%	-6.2%	-6.3%	1.3%
CC[C@@H](C)[C@H](CNC)NC[C@@H](Cc1cccc2ccccc12)NCCc1cccc(C(F)(F)F)c1	-7.9%	?	5.3%	-1.5%	-13.2%	-0.7%
CCOc1ccccc1NC(=O)CC(c1ccc(F)cc1)N1Cc2ccccc2C1=O (stereo not given)	i	/	/	/	/	/
O=C1c2ccc3c4c(ccc(c24)C(=O)N1CCCCO)C(=O)N(CCCCO)C3=O	-7.6%	2.06µM*	-2.4%	-4.2%	7.1%	-0.1%
O=C(c1ccc2c(c1)C(=O)N(CCCO)C2=O)c1ccc2c(c1)C(=O)N(CCCO)C2=O	-8.3%	-1.1%	-0.9%	-5.8%	-5.0%	-0.5%
CCN1CCN(c2csc3ccc(Br)cc3c2=O)CC1	-9.4%	/	/	/	/	/
COC(=O)c1ccccc1NC(=S)N(Cc1ccc2c(c1)OCO2)Cc1cc2cccc(C)c2[nH]c1=O	-17.3%	11.6µM*	-16.3%	3.3%	-4.9%	-1.2%
Cc1cc(C)c2cc(CN(Cc3ccco3)C(=O)NCc3ccccc3)c(=O)[nH]c2c1	-2.6%	8.2µM*	1.8%	?	1.6%	3.5%
COc1ccccc1NC(=S)N(Cc1ccco1)Cc1cc2cc(C)cc(C)c2[nH]c1=O	-0.5%	11.6µM*	-5.4%	5.5%	-2.9%	0.0%
Cc1cccc2cc(CN(CCN(C)C)C(=S)Nc3ccccc3)c(=O)[nH]c12	i	-28.6%	0.5%	11.1%	16.9%	0.1%
COc1ccccc1N(C(=O)c1ccco1)C(C(=O)NC1CCCC1)c1ccc(N2CCOCC2)cc1 (stereo not given)	i	5.4%	2.7%	/	-4.2%	0.5%
COc1cccc(CNC(=O)c2ccccc2NC(=O)C2=C(C)OCCS2)c1	-4.5%	?	-0.7%	/	-0.8%	-1.1%
COc1cccc(CNC(=O)c2ccccc2NC(=O)C2=C(C)OCCS2)c1OC	-5.8%	11.6µM*	0.1%	-0.3%	1.9%	0.0%
CCCCCCCC[n+]1cccc2c3ccccc3ccc21	0.2%	?	-1.1%	-7.5%	-8.4%	1.4%
CCCCCCCCCC[n+]1cccc2c3ccccc3ccc21	5.6%	2.31µM*	-6.1%	-6.5%	0.5%	-4.2%
CC1C(=O)N(Cc2cn(Cc3ccco3)nn2)CCS(=O)(=O)N1Cc1ccc(-c2ccc(F)cc2)cc1 (stereo not given)	1.9%	/	/	/	/	/
CN1CCN(C2=Nc3cc(F)ccc3Cc3ccccc32)CC1	/	/	-4.0%	0.2%	/	/
CN1CCN(C2=Nc3c(Cl)cc(Cl)c4cccc2c34)CC1	-0.2%	1.1%	-2.1%	-4.4%	2.4%	51.7µM*

A second format for some results above:
Molecule | PGK inhibitor | ELG1 repair inh | Tb PFK inh | PKM2 activator | Rango dissoc inh | Rango-impB inh
COC(=O)c1ccccc1NC(=S)N(Cc1ccc2c(c1)OCO2)Cc1cc2cccc(C)c2[nH]c1=O | -17.3% | 11.6µM* | -16.3% | 3.3% | -4.9% | -1.2%
Cc1cc(C)c2cc(CN(Cc3ccco3)C(=O)NCc3ccccc3)c(=O)[nH]c2c1 | -2.6% | 8.2µM* | 1.8% | ? | 1.6% | 3.5%
COc1ccccc1NC(=S)N(Cc1ccco1)Cc1cc2cc(C)cc(C)c2[nH]c1=O | -0.5% | 11.6µM* | -5.4% | 5.5% | -2.9% | 0.0%
Cc1cccc2cc(CN(CCN(C)C)C(=S)Nc3ccccc3)c(=O)[nH]c12 | i | -28.6% | 0.5% | 11.1% | 16.9% | 0.1%
COc1ccccc1N(C(=O)c1ccco1)C(C(=O)NC1CCCC1)c1ccc(N2CCOCC2)cc1 (stereo not given) | i | 5.4% | 2.7% | / | -4.2% | 0.5%

Following part.
SMILES	PGK inhibitor	ELG1 repair inh	Tb PFK inh	PKM2 activator	Rango dissoc inh	Rango-impB inh
O=C(C1CCN(S(=O)(=O)c2cccc3cccnc23)CC1)N1CCn2c1nc1ccccc12	i	23.1µM*	-4.4%	-13.9%	12.6%	0.0%
O=C(C1CCCN1S(=O)(=O)c1cccc2cccnc12)N1CCn2c1nc1ccccc12 (stereo not given)	-3.1%	-16.7%	-0.1%	-4.3%	2.7%	?
CC(=O)c1c(C)[nH]c(C(=O)OCC(=O)N2CCN(S(=O)(=O)c3ccc(C)cc3C)CC2)c1C	-10.8%	18.4µM*	2.4%	0.2%	-3.2%	0.7%
Cc1ccc(S(=O)(=O)N2CCN(C(=O)CSC3CCCC3)CC2)c(C)c1	-0.3%	20.6µM*	-1.4%	26.9%	17.3%	0.6%
